ERAP1 HTS inh – blocks human ERAP1 aminopeptidase activity. Q9NZ08. recombinant ERAP1, Leu-AMC fluorescence, 60 min. inhibition, % at 10.7 µM. 340,000 tested, 0.15% active. AID 652197;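 active = mean replicate inhibition of at least 30%, or all replicates individually reaching that 30% level; inactive = mean below 30% and not every replicate reaching it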;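 note: 0% = neutral control wells and 100% = L-leucinethiol positive control wells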
E-sel inducer – induces E-selectin expression in human endothelial cells; HUVEC E-selectin immunofluorescence imaging; normalized: neutral wells 0, TNF-alpha wells 100; activation, % at 7.58 µM; 260,000 tested, 0.37% active;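 active = mean E-selectin-positive cell signal at least 10% of the positive control, reached in at least 60% of replicates, without over 20% cell loss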
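Read-out: % PE-positive cells | Test system: HUVEC | Doses: One compound dose added by pin transfer | Buffer or medium: EGM-2 over gelatin coat | Signal: Immunofluorescence imaging | Benchmarks: TNF-alpha, DMSO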
S100A4 MyoIIA – blocks human S100A4 binding to myosin IIA peptide. S100A4/TAMRA-MyoIIA peptide fluorescence polarization. inhibition, % at 10.7 µM. 360,000 tested, 0.14% active. AID 652163;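 active = mean inhibition of at least 70% across replicates, with every replicate also reaching that level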
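Test system: S100A4 monomer protein; Medium: HEPES pH 7.2 with CaCl2, KCl, NaCl, DTT, Triton; Probe or stimulus: TAMRA-labelled myosin IIA heavy-chain peptide probe, 5 nM; Doses: one dose per compound; Times: polarization read 5 min after assay mix addition, stable 5–60 min; Benchmarks: neutral control DMSO, positive control TFP.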
MLL AF4-AF9 inh – blocks AF4 peptide binding to human AF9; inhibition, % at 10 µM; P42568; AlphaScreen, biotin-AF4 peptide binding to FLAG-AF9; AID 651704; 350,000 tested, 0.47% active;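 active = every replicate reaching a set inhibition limit, whatever the replicate mean, cut at about 25% in these data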;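 note: 0% = plate neutral control median and 100% = total signal loss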
UUG fidelity – modulators of yeast start codon fidelity, primary screen, whole organism, S. cerevisiae, single point, plate reader; S. cerevisiae UUG-firefly luciferase reporter, luminescence/redox ratio; activity score, % at 18.7 µM; actives 0.13% (n = 350,000); AID 602363, 2012;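 active = replicate mean at a twofold rise or more, about +100% in these data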;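 also: firefly luciferase made from a UUG start codon reports start codon fidelity; reporter light over untreated wells divided by growth signal over untreated wells; some hits fall short of that in this replicate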
ARNT TACC3 PPI – ARNT/TACC3 interaction disruption; inhibition, % at 9.99 µM; 390,000 tested, 0.66% active; AlphaScreen His-ARNT PAS-B/GST-TACC3 binding, luminescence; TACC3 fragment carries E629A point mutation; AID 623870; Q9Y6A5;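 active = mean inhibition of replicates at least 50% and at least half of replicates each reaching 50%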;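 note: 0% = complete ARNT plus TACC3 wells and 100% = ARNT alone without TACC3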
ARNT Alpha ctr – counter-screen for ARNT/TACC3 inhibitors: AlphaScreen artifacts. AID 651705. His-ARNT PASB-GST AlphaScreen artifact counter-screen, luminescence. shares compounds with ARNT TACC3 PPI. AC50, µM (top dose mostly 68 µM), inactives show top-dose activity change, negative = signal decrease. 1,200 tested, 50% active;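 active = every separate test run was called active for a drop in luminescence, with AC50 within twice the top valid dose, actives reach about 71 µM in these data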
* = called active by the depositor; [ ] = remark or other dose. The list is not random: actives were taken first. Their share in the collection is about 1.3%.

Screening N/C(=N\OS(=O)(=O)c1ccc(Cl)cc1)c1ccccn1 returned ERAP1 HTS inh 13, E-sel inducer 0, S100A4 MyoIIA 0, MLL AF4-AF9 inh 0, ARNT TACC3 PPI 53* and ARNT Alpha ctr -18%.
For N/C(=N\NS(=O)(=O)c1ccccc1Cl)c1ccccn1 the results were ERAP1 HTS inh 2, E-sel inducer 2, S100A4 MyoIIA -1, MLL AF4-AF9 inh -2, ARNT TACC3 PPI 55* and ARNT Alpha ctr -9%.
Screening C/C=C/c1cnc2c(c1)C(=O)N([C@@H](C)CO)C[C@H](C)[C@H](CN(C)Cc1ccccc1)O2 returned ERAP1 HTS inh -1, E-sel inducer 0, S100A4 MyoIIA -4, MLL AF4-AF9 inh -7, UUG fidelity 0 and ARNT TACC3 PPI 5.
`CCCN1C[C@H](C)[C@H](OC)CN(C)C(=O)c2ccc(NC(=O)C3CCOCC3)cc2OC[C@H]1C` gave ERAP1 HTS inh 0, E-sel inducer 2, S100A4 MyoIIA 25, MLL AF4-AF9 inh 0, UUG fidelity -2 and ARNT TACC3 PPI -6.
For Cc1cc(=O)n(-c2ccc(O)cc2)[nH]1 the results were UUG fidelity -14, ARNT TACC3 PPI 15* and ARNT Alpha ctr -10%.
Screening CN(C)CCNC(=O)c1cc(-c2ccccc2)on1 returned ARNT Alpha ctr -1%[38 µM].
Screening O=C(NCC1CC1)c1cc(-c2ccccc2)on1 returned ARNT Alpha ctr 1%[38 µM].
`Cc1ccccc1CNC(=O)c1cc(-c2ccccc2)on1` gave ARNT Alpha ctr 2%[38 µM].
Screening CO[C@H]1CN(C)C(=O)c2ccc(NC(=O)Cc3ccccc3)cc2OC[C@@H](C)N(C)C[C@@H]1C returned ERAP1 HTS inh 2, E-sel inducer 0, S100A4 MyoIIA 2, MLL AF4-AF9 inh -1, UUG fidelity -13 and ARNT TACC3 PPI -3.
Screening COc1ccc(S(=O)(=O)N(C)C[C@@H]2OCCCC[C@@H](C)Oc3ccc(NS(=O)(=O)c4cn(C)cn4)cc3C(=O)N([C@H](C)CO)C[C@H]2C)cc1 returned ERAP1 HTS inh 0, S100A4 MyoIIA 1, MLL AF4-AF9 inh -2 and ARNT TACC3 PPI 3.
For Cc1nnc(-c2ccccc2)c(=O)n1/N=C/c1c(O)ccc2ccccc12 the results were ARNT TACC3 PPI 62* and ARNT Alpha ctr 64µM*.
`Cc1nc2ccccc2c(=O)n1/N=C/c1ccc(O)c(O)c1O` gave ERAP1 HTS inh 1, E-sel inducer 0, S100A4 MyoIIA 2, MLL AF4-AF9 inh -11, UUG fidelity -20, ARNT TACC3 PPI 52* and ARNT Alpha ctr -12%.
Cc1nc2ccccc2c(=O)n1/N=C/c1ccccc1O was read as ERAP1 HTS inh -4, E-sel inducer 4, S100A4 MyoIIA -10, MLL AF4-AF9 inh -6, UUG fidelity 3 and ARNT TACC3 PPI 1.
Screening Cc1nnc(C)n1/N=C/c1c(O)ccc2ccccc12 returned ERAP1 HTS inh -1, E-sel inducer 0, S100A4 MyoIIA -3, MLL AF4-AF9 inh -3, UUG fidelity 5 and ARNT TACC3 PPI 9.
Screening CCCNC(=O)C[C@@H]1CC[C@@H]2[C@@H](COc3ccc(NC(=O)Nc4ccccc4F)cc3C(=O)N2C)O1 returned ERAP1 HTS inh -2, E-sel inducer 0, S100A4 MyoIIA -3, MLL AF4-AF9 inh 0, UUG fidelity 9 and ARNT TACC3 PPI -11.
CCCN1C[C@H](C)[C@H](OC)CN(C)C(=O)c2cc(NC(=O)C3CCC3)ccc2OC[C@@H]1C was read as E-sel inducer 0 and ARNT TACC3 PPI -4.
`Cc1ccc2ccc3cccnc3c2n1` gave ERAP1 HTS inh -1, E-sel inducer 0, S100A4 MyoIIA -1, MLL AF4-AF9 inh -1, UUG fidelity -37, ARNT TACC3 PPI 74* and ARNT Alpha ctr 51µM*.
Cc1c(C)c2cccnc2c2ncccc12 was read as UUG fidelity -52.
For C/C=C/c1ccc([C@H]2[C@@H](CO)N(Cc3ccccn3)[C@@H]2CNC(C)=O)cc1 the results were ERAP1 HTS inh 0, E-sel inducer 0, S100A4 MyoIIA 3, MLL AF4-AF9 inh 0, UUG fidelity -6, ARNT TACC3 PPI 30* and ARNT Alpha ctr -11%[42 µM].
Screening C/C=C/c1ccc([C@H]2[C@@H](CO)N(Cc3ccccn3)[C@@H]2CNC(=O)CC)cc1 returned ERAP1 HTS inh 0, E-sel inducer 0, S100A4 MyoIIA 9, MLL AF4-AF9 inh -2, UUG fidelity -18 and ARNT TACC3 PPI 23.
For C/C=C/c1ccc([C@H]2[C@@H](CO)N(Cc3ccccn3)[C@H]2CNC(=O)CC)cc1 the results were E-sel inducer 0, UUG fidelity -20, ARNT TACC3 PPI 41* and ARNT Alpha ctr -23%[42 µM].
For Oc1cc(-c2ccc(N3CCCCC3)nc2)cc2cccnc12 the results were UUG fidelity -22 and ARNT TACC3 PPI 14.
Oc1cc(Nc2ccncc2)cc2cccnc12 was read as ERAP1 HTS inh 8, E-sel inducer 0, S100A4 MyoIIA 8, MLL AF4-AF9 inh 70*, UUG fidelity -29, ARNT TACC3 PPI 73* and ARNT Alpha ctr 7.9µM*.
Screening O=C(c1cc(-c2ccccc2)on1)N1CCC(CO)CC1 returned ARNT Alpha ctr -2%[38 µM].
Screening O=C(c1cc(-c2ccccc2)on1)N1CCN(c2ccncc2)CC1 returned ARNT Alpha ctr -7%[38 µM].
Screening O=C(c1cc(-c2ccccc2)on1)N1CCC(N2CCCC2)CC1 returned ARNT Alpha ctr 0%[38 µM].
Screening Clc1ccc(-c2ccc(SCc3ccccn3)nn2)cc1 returned UUG fidelity -26 and ARNT TACC3 PPI -2.
`c1ccc(-c2ccc(SCc3cccnc3)nn2)nc1` gave ERAP1 HTS inh -4, E-sel inducer 5, S100A4 MyoIIA -5, MLL AF4-AF9 inh 3, ARNT TACC3 PPI 58* and ARNT Alpha ctr 14µM*.
c1ccc(CSc2ccc(-c3ccccn3)nn2)nc1 was read as ERAP1 HTS inh -5, E-sel inducer 3, S100A4 MyoIIA -3, MLL AF4-AF9 inh 0, ARNT TACC3 PPI 64* and ARNT Alpha ctr 9.1µM*.
Screening CCCNC(=O)[C@@H]1[C@@H](CO)[C@@H]2Cn3c(cccc3=O)[C@H]1N2S(=O)(=O)c1ccccc1F returned ERAP1 HTS inh 1, E-sel inducer 0, S100A4 MyoIIA 5, MLL AF4-AF9 inh -22 and ARNT TACC3 PPI -23.
C[C@H](O)C#Cc1cnc2c(c1)C(=O)N([C@@H](C)CO)C[C@@H](C)[C@H](CN(C)C(=O)Cc1ccccn1)O2 was read as ERAP1 HTS inh -1, E-sel inducer 1, S100A4 MyoIIA 13, MLL AF4-AF9 inh -3, UUG fidelity -14 and ARNT TACC3 PPI -2.

Taken from above, 4 compounds:
CCCN1C[C@H](C)[C@H](OC)CN(C)C(=O)c2cc(NC(=O)C3CCC3)ccc2OC[C@@H]1C was read as E-sel inducer 0 and ARNT TACC3 PPI -4.
`Cc1ccc2ccc3cccnc3c2n1` gave ERAP1 HTS inh -1, E-sel inducer 0, S100A4 MyoIIA -1, MLL AF4-AF9 inh -1, UUG fidelity -37, ARNT TACC3 PPI 74* and ARNT Alpha ctr 51µM*.
Cc1c(C)c2cccnc2c2ncccc12 was read as UUG fidelity -52.
For C/C=C/c1ccc([C@H]2[C@@H](CO)N(Cc3ccccn3)[C@@H]2CNC(C)=O)cc1 the results were ERAP1 HTS inh 0, E-sel inducer 0, S100A4 MyoIIA 3, MLL AF4-AF9 inh 0, UUG fidelity -6, ARNT TACC3 PPI 30* and ARNT Alpha ctr -11%[42 µM].
